Shown are actives, neighbours in structure and some others; about 1.8% of the full set was active somewhere.
DENV2 CPE: protects cells from dengue virus 2 cytopathic effect; 350,000 compounds, 1.7% hits; CPE inhibition, % at 9.99 µM; AID 651640; DENV2-infected cells, cytopathic effect rescue, plate reader; in the data active means CPE inhibition above about 20%, passing the limit was not always enough; inconclusive means no clear call, values can overlap the other calls; tested in BHK-21 cells;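 further: 0% = median of neutral control wells and 100% = median of positive control wells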
UUG fidelity: alters start codon recognition fidelity in yeast; S. cerevisiae UUG-firefly luciferase reporter, luminescence/redox ratio; activity score, % at 18.7 µM; actives 0.13% (n = 350,000); AID 602363;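 active = replicate mean at a twofold rise or more, about +100% in these data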;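 also: firefly luciferase made from a UUG start codon reports start codon fidelity; reporter light over untreated wells divided by growth signal over untreated wells; some hits fall short of that in this replicate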
E-sel inducer: E-selectin induction on HUVECs; HUVEC E-selectin immunofluorescence imaging; normalized: neutral wells 0, TNF-alpha wells 100; activation, % at 7.58 µM; 260,000 compounds, 0.37% hits;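 active means mean E-selectin-positive cell signal at least 10% of the positive control, reached in at least 60% of replicates, without over 20% cell loss; inconclusive means no rule given, readout overlaps actives, possibly toxicity-flagged; inactive means the rest, including those meeting only one limit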
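Assay system: HUVEC, human umbilical vein endothelial cells / Amount: 3,000 HUVEC/well / Controls: TNF-alpha positive control, DMSO neutral control / Compound dosing: single concentration / Medium: EGM-2 over gelatin coat / Evaluation: percent E-selectin-positive cells / Signal: immunofluorescence imaging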
Cneo AK release: Cryptococcus neoformans lysis via adenylate kinase release; lysis activity, % at 15 µM; C. neoformans lysis, adenylate kinase release luminescence, 4 h; normalised: neutral wells 0, clomiphene wells 100; AID 651654; 360,000 compounds, 0.2% hits;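 active means mean lysis activity across replicates of at least 80%, whatever share of replicates individually reach that level; inactive means mean lysis activity below 80%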
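Schedule: static 4 h at 37 °C with compound, 1 h detection; system: C. neoformans cells; benchmarks: Clomiphene as positive control; buffer or medium: fresh YPD medium; measure: luminescence rise reflecting yeast cell lysis; measured by: luminescent adenylate kinase detection reagent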
Numbers without * were called inactive; u = inconclusive; x = no result; ! = a repeat was not active.

#1 CC(C)OC(=O)N(C)C[C@H]1OCc2cnnn2CCCC(=O)N([C@@H](C)CO)C[C@H]1C
#2 C[C@H](CO)N1C[C@H](C)[C@@H](CN(C)C(=O)Cc2ccccc2)OCc2cnnn2CCCC1=O
#3 CC(C)OC(=O)N(C)C[C@H]1OCc2cnnn2CCCC(=O)N([C@H](C)CO)C[C@@H]1C
#4 CC(C)NC(=O)N(C)C[C@H]1OCc2cnnn2CCCC(=O)N([C@@H](C)CO)C[C@@H]1C
#5 C[C@@H]1CN([C@H](C)CO)C(=O)CCCn2nncc2CO[C@@H]1CN(C)C(=O)Cc1ccccc1
#6 C[C@H](CO)N1C[C@H](C)[C@@H](CN(C)Cc2ccc(O)cc2)OCc2cnnn2CCCC1=O
#7 C[C@H]1CCCCO[C@H](CN(C)S(=O)(=O)c2ccc(Cl)cc2)[C@@H](C)CN([C@@H](C)CO)C(=O)c2cc(NS(=O)(=O)c3ccccc3)ccc2O1
#8 CC=Cc1ccc2n(c1=O)C[C@@H]1[C@@H](CO)[C@H](C(=O)N3CCOCC3)N(CC3CC3)[C@H]21 (mixture of isomers)
#9 C[C@H]1CN([C@@H](C)CO)C(=O)c2cc(NC(=O)CCC(F)(F)F)ccc2O[C@H]1CN(C)Cc1ccc(C(=O)Nc2ccccc2N)cc1
#10 C[C@@H]1CN([C@H](C)CO)C(=O)c2cc(NC(=O)CCC(F)(F)F)ccc2O[C@H]1CN(C)Cc1ccc(C(=O)Nc2ccccc2N)cc1

assay / entry	1	2	3	4	5	6	7	8	9	10
DENV2 CPE	u	12.4	28.5*!	45.3*	32.8*!	41.9*!	3.2	-2.4	10.3	20.3*
UUG fidelity	0.2	-27.2	-7.4	0.7	-12.3	5.2	x	x	14.1	x
E-sel inducer	0.1	2.6	0.8	0.1	-1.7	-0.3	-0.3	1.1	0.7	-3.0
Cneo AK release	-0.2	-1.0	0.6	-1.4	-3.1	1.7	x	47.4	55.6	x

#11 C[C@@H]1CN([C@H](C)CO)C(=O)c2cc(NC(=O)Nc3ccc(C(F)(F)F)cc3)ccc2O[C@H]1CN(C)Cc1ccc(C(=O)Nc2ccccc2N)cc1
#12 c1cc2cc(-c3c(-c4ccc5c(c4)OCO5)noc3-c3ccsc3)ccc2[nH]1
#13 C[C@H]1CN([C@@H](C)CO)S(=O)(=O)c2ccc(C#CCN(C)C)cc2O[C@H]1CN(C)Cc1ccccc1
#14 C[C@H]1CN([C@@H](C)CO)S(=O)(=O)c2ccc(C#Cc3ccccn3)cc2O[C@@H]1CN(C)Cc1ccccc1
#15 C[C@@H]1CN([C@@H](C)CO)S(=O)(=O)c2ccc(C#CCN(C)C)cc2O[C@H]1CN(C)Cc1ccccc1
#16 C[C@@H]1CN([C@@H](C)CO)S(=O)(=O)c2ccc(C#CCN(C)C)cc2O[C@@H]1CN(C)Cc1ccccc1F
#17 C[C@H](CO)N1C[C@H](C)[C@@H](CN(C)Cc2ccccc2F)Oc2cc(C#CCN(C)C)ccc2S1(=O)=O
#18 C[C@H]1CN([C@@H](C)CO)S(=O)(=O)c2ccc(C#Cc3ccccn3)cc2O[C@@H]1CN(C)Cc1ccc(F)cc1
#19 CCC(=O)N(C)C[C@H]1Oc2ncc(-c3ccc(C(=O)N(C)C)cc3)cc2C(=O)N([C@@H](C)CO)C[C@H]1C
#20 C[C@@H]1CN([C@@H](C)CO)C(=O)c2cc(NC(=O)c3ccccc3)ccc2O[C@@H](C)CCCCO[C@H]1CN(C)C(=O)Cc1ccccc1

assay / entry	11	12	13	14	15	16	17	18	19	20
DENV2 CPE	22.4*	120.0*	-1.9	-2.7	23.8*	44.7*	19.7	4.2	8.4	-1.2
UUG fidelity	x	-12.3	6.2	5.4	-4.1	2.7	2.4	17.7	46.9	19.0
E-sel inducer	15.8	0.2	-0.2	0.3	-0.2	0.5	0.5	0.5	0.1	x
Cneo AK release	x	-2.7	-1.0	107.0*	1.9	-0.2	1.6	-2.9	0.0	-1.6

3 compounds out of the list, arranged by heavy-atom count, smallest number first.
#12 c1cc2cc(-c3c(-c4ccc5c(c4)OCO5)noc3-c3ccsc3)ccc2[nH]1
#13 C[C@H]1CN([C@@H](C)CO)S(=O)(=O)c2ccc(C#CCN(C)C)cc2O[C@H]1CN(C)Cc1ccccc1
#17 C[C@H](CO)N1C[C@H](C)[C@@H](CN(C)Cc2ccccc2F)Oc2cc(C#CCN(C)C)ccc2S1(=O)=O

assay / entry	12	13	17
DENV2 CPE	120.0*	-1.9	19.7
UUG fidelity	-12.3	6.2	2.4
E-sel inducer	0.2	-0.2	0.5
Cneo AK release	-2.7	-1.0	1.6

Additional records follow:
#21 COc1ccc(COC[C@]23NC(=O)N[C@H](c4ccccc4O2)[C@H]3CO)cc1
#22 C[C@@H]1CCCCO[C@@H](CN(C)CC2CCCCC2)[C@@H](C)CN([C@H](C)CO)C(=O)c2cc(NC(=O)Nc3cccc4ccccc34)ccc2O1
#23 O=S1(=O)[C@H]2C[C@@H]3C=C[C@@]2(CN1Cc1ccc(Cl)cc1)O3
#24 Cc1cccc(CN2C[C@]34C=C[C@@H](C[C@@H]3S2(=O)=O)O4)c1
#25 O=C(Nc1ccccc1F)N1CCCCN2[C@H](C1)[C@@H](c1ccc(C#Cc3cccnc3)cc1)[C@@H]2CO
#26 CC(C)(C)OC(=O)NCCOCCOCCNc1ncnc2ccc(Br)cc12
#27 CCCNC(=O)N1C[C@@H](O)COC[C@@H]2O[C@H](CC(=O)O)CC[C@H]21

assay / entry	21	22	23	24	25	26	27
DENV2 CPE	-10.2	8.3	u	48.1*	-18.5	20.1*	15.4
UUG fidelity	-2.2	1.5	-12.7	-14.6	9.1	x	-15.9
E-sel inducer	x	1.0	x	-0.1	-0.2	x	0.0
Cneo AK release	-3.1	1.9	-1.1	3.1	-2.5	1.9	0.4
